Source: patent publication US8901295B2 (Institut National de la Sante et de la Recherche Medicale …, priority 2009, dated 2014)

Chains of the proteins cited; added tags and fusions are not shown. Residues count along the entry.
UniProt P23284, 34-216: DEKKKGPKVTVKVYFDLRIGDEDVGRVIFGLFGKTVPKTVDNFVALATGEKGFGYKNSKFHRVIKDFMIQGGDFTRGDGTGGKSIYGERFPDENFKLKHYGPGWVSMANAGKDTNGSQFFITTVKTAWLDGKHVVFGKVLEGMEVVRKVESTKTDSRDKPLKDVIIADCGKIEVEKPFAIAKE

Target: Cyclophilin B (CypB) (Homo sapiens (Human), UniProt P23284)
Assay: Cyclophilin PPIase enzymatic assay (chymotrypsin coupled), CypB
Assay type: biochemical
Details: for IC50: CypB
Protocol: Cyclophilin A, B protein carrying a hexahistidine tag (His-Tag) at the C-terminus, were expressed in Escherichia coli and purified. Briefly, cultures of C41(DE3) cells were grown at 37° C. for ˜1 h until the culture reached an optical density of 0.6 at 600 nm, and induced with 1 mM isopropyl β-D-thiogalactoside for 4 h at 37° C. or overnight at 22° C. for cylophilin A and cyclophilin B, respectively. Cell pellets (1 L) were resuspended in a lysis buffer (20 mM NaH2PO4 (pH 7.8), 300 mM NaCl, 7 mM β-mercaptoethanol, 1 mg/ml lysozyme, 0.1 U/μl Desoxyribonuclease and complete protease inhibitor tablets (Roche)). The sonicated cell lysates were clarified by centrifugation at 10 000 g for 45 min at 4° C., chromatographed on a Ni-NTA column and washed with buffer: (20 mM NaH2PO4 (pH7.8), 300 mM NaCl, 50 mM imidazole, 7 mM β-mercaptoethanol, 10% glycerol). The bound protein was eluted in 1 ml fractions with buffer: (20 mM NaH2PO4 (pH7.8), 300 mM NaCl, 250 mM imidazole, 7 mM β-mercaptoethanol, 10% glycerol) and monitored by the Bradford colorimetric assay. The purity of each cyclophilin was determined by Coomassie-stained SDS-PAGE analysis.
The reaction was initiated by adding 20 μL of 3.2 mM peptide substrate (Suc-Ala-Ala-cis-Pro-Phe-pNA) in LiCl/TFE solution with rapid inversion. […] The final concentration of LiCl in the assay was 20 mM; TFE was present at a concentration of 4% (v/v). Absorbance readings were collected every 1 s by spectrophotometer. The inhibition assays of compounds were performed in the same manner as mentioned above. A 5 μL aliquot of the compounds in DMSO was added to the cyclophilin solution in the assay buffer. The assay was started by the addition of the substrate. Cyclosporine A was used as control in all measurement. The percentage inhibition of cyclophilin PPiase activity were calculated from slopes and values obtained represent an average of at least two independent measurements.

Structure (SMILES): COc1ccc(N(C)C(=O)CNC(=O)NCc2ccc(N)cc2)cc1 [Compound F555, 2-(3-(4-aminobenzyl)ureido)-N-4-methoxyphenyl-N-methylacetamide]
- inhibition at 100 µM: 73.8%
- IC50: 27.8 µM

Structure (SMILES): CN(C(=O)CNC(=O)NCc1ccc(N)cc1)c1ccccc1 [Compound F557, 2-(3-(4-aminobenzyl)ureido)-N-phenyl-N-methylacetamide]
- inhibition at 100 µM: 76%
- IC50: 44.5 µM
